From patent publication US6207683A, “Benzocycloheptathiophene compounds” (Bridge Pharma, Inc., priority 1999, dated 2001)

Protein sequences, listed by entry. Tags and fused reporters are not part of them.
UniProt P30546, whole entry: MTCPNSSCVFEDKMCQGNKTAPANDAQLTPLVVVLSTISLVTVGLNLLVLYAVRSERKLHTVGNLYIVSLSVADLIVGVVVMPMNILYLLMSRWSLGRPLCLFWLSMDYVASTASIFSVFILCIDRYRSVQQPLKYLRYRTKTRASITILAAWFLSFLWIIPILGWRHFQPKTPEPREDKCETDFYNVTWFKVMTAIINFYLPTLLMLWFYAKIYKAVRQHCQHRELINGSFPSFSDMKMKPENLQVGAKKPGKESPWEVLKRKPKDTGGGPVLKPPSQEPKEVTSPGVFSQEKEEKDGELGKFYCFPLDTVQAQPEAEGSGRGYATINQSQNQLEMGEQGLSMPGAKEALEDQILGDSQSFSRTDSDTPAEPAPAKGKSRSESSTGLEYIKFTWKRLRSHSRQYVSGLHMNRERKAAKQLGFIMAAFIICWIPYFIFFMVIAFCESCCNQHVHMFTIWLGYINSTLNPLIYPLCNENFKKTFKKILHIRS

Molecular target: T1, histamine H1 -receptors (membranes from bovine cerebellum) (Bos taurus, UniProt P30546)
T1 construct: membranes from bovine cerebellum; from tissue; host or cells: bovine cerebellum membranes
Experiment: [^3 H]pyrilamine binding assay, histamine H1-receptors
Protocol: 1. Binding to histaminergic receptors
The affinities of the test compounds for histamine H1 -receptors were assessed using the [^3 H]pyrilamine binding assay, modified after Chang et al. Heterogeneity of Histamine H1 -Receptors. J. Neurochem. 1979, 32: 1653-1663 Briefly, membranes from bovine cerebellum were incubated with [^3 H]pyrilamine and the test compound at increasing concentrations. The specific binding of the radioactive ligand to the receptor was defined as the difference between total binding and nonspecific binding, determined in the presence of an excess of unlabelled ligand. IC50 values (concentration required to inhibit 50% of specific binding of [^3 H]pyrilamine) were determined by non linear regression analysis of the competition curves.

CN1CCC(=C2c3ccccc3CC(=O)c3sccc32)CC1 [Ketotifen, ketotifen]
IC50: 8.15 nM
